Paper PMC11707430, “Novel antibiotics against Staphylococcus aureus without detectable resistance by targeting proton motive force and FtsH” (MedComm, 2025)

Amino acid sequences for entries named in this document (tags omitted). A change or cut given only in a name is not applied to a line headed by its entry.
UniProt Q12809: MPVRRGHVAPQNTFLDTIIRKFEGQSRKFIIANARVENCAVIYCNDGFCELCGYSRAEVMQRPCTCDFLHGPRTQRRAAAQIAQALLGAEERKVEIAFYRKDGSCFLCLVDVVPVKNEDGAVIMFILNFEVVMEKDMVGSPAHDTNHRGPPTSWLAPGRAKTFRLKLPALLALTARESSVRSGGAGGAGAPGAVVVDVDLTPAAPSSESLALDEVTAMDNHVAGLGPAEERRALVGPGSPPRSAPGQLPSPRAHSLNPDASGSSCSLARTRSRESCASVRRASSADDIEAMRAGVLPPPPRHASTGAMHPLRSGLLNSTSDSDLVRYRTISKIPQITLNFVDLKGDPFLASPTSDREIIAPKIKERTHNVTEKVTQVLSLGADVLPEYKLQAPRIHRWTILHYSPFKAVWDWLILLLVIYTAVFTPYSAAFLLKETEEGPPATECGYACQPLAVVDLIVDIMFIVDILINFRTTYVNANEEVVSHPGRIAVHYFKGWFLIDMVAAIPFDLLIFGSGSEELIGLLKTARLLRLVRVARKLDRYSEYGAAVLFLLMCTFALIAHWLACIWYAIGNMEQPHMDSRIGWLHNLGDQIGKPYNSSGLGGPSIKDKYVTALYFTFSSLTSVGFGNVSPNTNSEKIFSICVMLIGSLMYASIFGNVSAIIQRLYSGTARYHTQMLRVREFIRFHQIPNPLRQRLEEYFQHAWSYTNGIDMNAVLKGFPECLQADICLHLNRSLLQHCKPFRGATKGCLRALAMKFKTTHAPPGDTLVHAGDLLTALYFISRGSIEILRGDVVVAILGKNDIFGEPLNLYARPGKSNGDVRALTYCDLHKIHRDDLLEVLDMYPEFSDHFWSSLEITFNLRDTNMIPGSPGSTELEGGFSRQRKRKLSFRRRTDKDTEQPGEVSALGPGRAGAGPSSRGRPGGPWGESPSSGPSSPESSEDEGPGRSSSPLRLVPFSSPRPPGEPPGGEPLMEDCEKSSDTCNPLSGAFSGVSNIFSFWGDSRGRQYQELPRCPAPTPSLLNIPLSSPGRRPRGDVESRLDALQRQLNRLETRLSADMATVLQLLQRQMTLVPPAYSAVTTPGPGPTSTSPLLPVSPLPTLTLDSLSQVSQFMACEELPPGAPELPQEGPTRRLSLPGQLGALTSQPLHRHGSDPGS

Molecular target: T1, hERG (Homo sapiens, UniProt Q12809)
T1 construct: expressed in transfected cells; host or cells: HEK293
Test: hERG patch clamp
Format: cell-based
Settings: positive control
Method: hERG. hERG channels expressed HEK293 cell line was cultured in DMEM at 37℃ with 10% FBS to ~70% of log phase. Then, the cells were washed with PBS and digested with trypsin. After incubation at 37 ℃ for 2-3 min, the cells were washed again and adjusted to ~ 2×10^3/mL. The patch clamp detection experiment was performed after the cells attached to the cell wall. The extracellular fluid was prepared as 137 mM NaCl,1 mM MgCl2‧6H2O, 4 mM KCl,1.8 mM CaCl2‧2H2O, 10 mM D-Glucose, 10 mM HEPES, pH=7.4. And the intracellular fluid was prepared as 140 mM KCl,10 mM EGTA, 5 mM MgCl2‧6H2O, 10 mM HEPES, 5 mM Mg-ATP, pH=7.2. The current data was collected by using Pathmaster software. And the peak current inhibition rate was calculated as: (1−Peak tail current compoundPeak tail current vehicle). The concentration-effects were fitted by the Hill equation: I=Imax∙(1/[1+(C1/2/[C])^h), where [C], C1/2, and h represented the drug concentration, half inhibitory concentration (IC50), Hill coefficient, respectively^19.

**Q.** `COc1cc(N)c(Cl)cc1C(=O)NC1CCN(CCCOc2ccc(F)cc2)CC1OC` (stereo not shown) [cisapride, reference compound] was tested. Which “hERG inhibition (in words)” value did it give?
**A.** obvious inhibitory effect
